Data on 1 substance can be found in patent EP4741420A1, “PHARMACEUTICAL COMPOSITION FOR PREVENTING OR TREATING OBESITY COMPRISING GLP ANALOGUE AS ACTIVE INGREDIENT” (priority 2023, dated 2025).

In this experiment the target is GLP-1R (on GLP-1R/CHO cells, DiscoverX 95-0062C2) (UniProt P43220). The experiment in a line: cell-based or functional assay.

Substance “Exendin-4 (from UniProt P26349) (peptide)” gave an EC50, cAMP increase in GLP-1R/CHO cells, average (n=4) of 9.6 pM; a GLP-1 activity (EC50, pM) of 7.1 pM; a GLP-1 activity, Compared to GLP-1 (Exendin-4) of 100%; a Relative to GLP-1 (Exendin-4) %, cAMP in GLP-1R/CHO cells, average (n=4) of 100%.
